Among the data in US6913892B1, “Method of obtaining compositions comprising Y4 specific compounds” (H. Lundbeck A/S, priority 1993, dated 2005) are Ki and Kd values, retold here.

The chains behind the UniProt entries cited, without tags or fusion partners. Where a name states a change or a piece, a line headed by the entry shows the natural chain unless it says otherwise.
UniProt Q63447: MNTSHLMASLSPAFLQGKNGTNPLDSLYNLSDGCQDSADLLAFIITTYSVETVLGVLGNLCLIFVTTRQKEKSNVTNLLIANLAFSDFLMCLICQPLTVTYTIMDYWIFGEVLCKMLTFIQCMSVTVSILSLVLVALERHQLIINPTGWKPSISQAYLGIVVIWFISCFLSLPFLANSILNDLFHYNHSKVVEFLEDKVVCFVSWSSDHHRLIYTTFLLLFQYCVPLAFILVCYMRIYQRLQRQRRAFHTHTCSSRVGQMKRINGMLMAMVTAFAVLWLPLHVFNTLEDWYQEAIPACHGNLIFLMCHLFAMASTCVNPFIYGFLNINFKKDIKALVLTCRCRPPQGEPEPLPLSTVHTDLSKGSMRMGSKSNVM
UniProt P50391: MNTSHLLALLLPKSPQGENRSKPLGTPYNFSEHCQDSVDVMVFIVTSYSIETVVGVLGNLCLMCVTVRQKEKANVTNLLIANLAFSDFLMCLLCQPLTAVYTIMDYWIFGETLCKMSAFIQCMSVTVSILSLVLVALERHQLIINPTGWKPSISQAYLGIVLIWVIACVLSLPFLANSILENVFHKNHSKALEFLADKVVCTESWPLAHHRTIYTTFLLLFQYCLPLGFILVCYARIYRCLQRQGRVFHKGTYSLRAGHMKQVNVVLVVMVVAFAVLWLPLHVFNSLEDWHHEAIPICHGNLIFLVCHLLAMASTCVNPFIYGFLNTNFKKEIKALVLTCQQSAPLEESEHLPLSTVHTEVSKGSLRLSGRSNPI
UniProt P49146, whole entry: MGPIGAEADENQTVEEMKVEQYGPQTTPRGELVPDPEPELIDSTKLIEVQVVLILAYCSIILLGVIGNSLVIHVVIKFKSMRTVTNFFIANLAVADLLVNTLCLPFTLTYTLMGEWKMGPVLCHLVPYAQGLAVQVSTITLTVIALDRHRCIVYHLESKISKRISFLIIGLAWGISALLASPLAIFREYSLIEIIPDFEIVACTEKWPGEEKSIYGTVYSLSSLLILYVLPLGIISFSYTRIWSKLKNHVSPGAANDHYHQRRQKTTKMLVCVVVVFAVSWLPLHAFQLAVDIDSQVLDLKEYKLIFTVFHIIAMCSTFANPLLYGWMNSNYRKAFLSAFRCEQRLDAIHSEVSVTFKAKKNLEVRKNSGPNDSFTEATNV
UniProt P25929, whole entry: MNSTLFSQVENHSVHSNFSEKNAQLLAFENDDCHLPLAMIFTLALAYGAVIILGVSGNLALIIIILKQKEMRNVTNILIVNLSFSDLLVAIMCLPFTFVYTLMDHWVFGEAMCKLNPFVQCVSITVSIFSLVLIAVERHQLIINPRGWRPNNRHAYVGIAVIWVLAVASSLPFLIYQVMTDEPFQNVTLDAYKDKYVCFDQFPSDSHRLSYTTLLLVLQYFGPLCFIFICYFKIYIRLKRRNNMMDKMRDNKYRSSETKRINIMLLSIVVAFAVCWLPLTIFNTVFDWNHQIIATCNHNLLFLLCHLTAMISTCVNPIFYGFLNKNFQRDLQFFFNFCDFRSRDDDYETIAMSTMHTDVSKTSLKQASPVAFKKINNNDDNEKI

For one test, the target named is T1, rat Y4 receptor (Rattus norvegicus, UniProt Q63447).
T1 construct: expressed in transfected cells; host or cells: COS-7
Put plainly: Binding of 125I-PYY and competitive displacement, membranes of COS-7 cells transiently expressing rat Y4 receptors.

For test [1], the target named is T2, human hp25a (Y4) receptor (Homo sapiens, UniProt P50391).
T2 construct: The entire coding region of hp25a (1127 bp); expressed in transfected cells; host or cells: COS-7
Put plainly: Competitive displacement / binding of 125I-PYY, membranes of COS-7 cells transiently expressing hp25a (human Y4) receptors. Conditions: for Ki: read-out: Y4 (Ki), Table 3, cloned human Y4 in COS-7, displacement of 125I-PYY.

For the next test, the target named is T3, human Y2 receptor (Homo sapiens, UniProt P49146).
T3 construct: expressed in transfected cells; host or cells: COS-7
As to the kind of experiment: Competitive displacement of 125I-PYY, membranes of COS-7 cells transiently expressing human Y2 receptors. In kind it is binding. The conditions noted are these: read-out: Y2 (Ki); Table 3; cloned human Y2 in COS-7, displacement of 125I-PYY. On the technique in general: In a radioligand displacement assay an active substance lowers the binding of a labelled ligand.

Another test has as its target Y1 receptor (Homo sapiens, UniProt P25929). As to the kind of experiment: Competitive displacement / binding of 125I-PYY, membranes of COS-7 cells transiently expressing human Y1 receptors. On the set-up: expressed in transfected cells; host or cells: COS-7. The conditions noted are these: read-out: Y1 (Ki); Table 3; cloned human Y1 in COS-7, displacement of 125I-PYY.

For another test, the target named is T4, human Y4 receptor (Homo sapiens, UniProt P50391).
T4 construct: expressed in transfected cells
Put plainly: Saturation binding of 125I-PYY to membranes from the NIH-3T3 stable clone expressing human Y4. The conditions noted are these: read-out: apparent Ki (saturation binding, one-site model).

Read-outs that look alike come from different tables or passages of the source.

Neuropeptide Y [NPY, human]: the Ki on rat Y4 receptor (Table 6; COS-7 membranes, displacement of 125I-PYY; read-out: Rat Y4 (Ki)) is 1.7 nM.
Neuropeptide Y [NPY, porcine]: at rat Y4 receptor (read-out: Rat Y4 (Ki); Table 6; COS-7 membranes, displacement of 125I-PYY), the Ki was found to be 1.8 nM.
As for Phe-Leu-Arg-Phe-amide, the Ki was 750 nM in test [1], above 100000 nM on human Y2 receptor and 15000 nM at Y1 receptor.
Taken in the same sequence, the figures for Phe-Met-Arg-Phe-Amide were 4000 nM, 75000 nM and 12000 nM.
With ^125I-PYY, the Kd on rat Y4 receptor (rat Y4 in COS-7, radioligand 0.5 pM to […]; read-out: apparent Kd (saturation binding, one-site model)) turned out to be 0.15 nM; in test [1] (hp25a in COS-7, n=4, read-out: apparent Kd (saturation binding, one-site model)) it was 0.11 ± 0.01 nM. Moreover, on human Y4 receptor, the Ki was 0.17 nM.
